{
  "source": "paper PMC6179291",
  "biological_target": "p21-binding domain (PDB) of the Rac effector protein p21 activated kinase (PAK), on beads (UniProt Q13153)",
  "test": "pull-down; PAK-PDB on beads (5 μg) with 5 μg GTPγS-loaded Rac1 in 500 μl pulldown buffer (25 mM Tris-HCl pH 8.0, 40 mM NaCl, 30 mM MgCl2, 1 mM DTT, 1% Igepal CA-630), 1 hour at 4°C; three washes; eluted Rac1 detected by western blot with anti-Rac1; intensities normalised to loading controls",
  "data": [
    {"substance": "Rac1(G30E) (residues 1-177), GTPγS-loaded (from UniProt P63000 1-177) (domain or fragment; other documents disagree on this pair)", "values": [
      {"measurement": "percent less GTP activated (pulled down by PAK-PDB) than wild type Rac1", "value": 50, "unit": "%"}
    ]}
  ]
}
